Key:
Escherichia coli DH5α [1] = conditions: 24 h in Luria Broth, 0.25 mM NEM, 0.25 mM MD, 1 mM DMFU, 4 mM DEME, DEMO, DMMO, 0.5 mM GTN, PETN, TNT; for nitroglycerin-degrading activity of cell-free extract: NADPH
[2] = system: Agrobacterium tumifaciens AGL-1; experiment: Induction of nitroglycerin-degrading activity in Agrobacterium tumifaciens AGL-1; conditions: 24 h in Luria Broth, 0.25 mM NEM, 0.125 mM MD, 1 mM DMFU, 4 mM DEME, DEMO, DMMO, 0.5 mM GTN, PETN, TNT; for nitroglycerin-degrading activity of cell-free extract: NADH
mixed soil culture = conditions: 24 h in Luria Broth, 1% w/v soil slurry, 0.5 mM GTN, PETN, TNT, NEM, 0.25 mM MD, 1 mM DMFU, 4 mM DEME, 1 mM 3HC, TPBO, TBHQ, DMME; for nitroglycerin-degrading activity of cell-free extract: NADPH
Pseudomonas sp. BB13 = experiment: Induction of nitroglycerin-degrading activity in Pseudomonas sp. BB13; conditions: 24 h in Luria Broth, 0.25 mM NEM, 0.5 mM MD, 1 mM DMFU, 4 mM DEME, DEMO, DMMO, 0.5 mM GTN, PETN, TNT; for nitroglycerin-degrading activity of cell-free extract: NADPH
Escherichia coli DH5α [3] = experiment: Induction of nitroglycerin-degrading activity in Escherichia coli DH5α with different dose rates of inducers; conditions: for course of nitroglycerin-degrading activity with increasing inducer concentration: DMFU 0.01-1 mM, DEME 0.1-4 mM, 3HC 0.25-4 mM, TBHQ 0.5-4 mM, DMME 0.5-4 mM, TPBO 0.5-4 mM
[4] = highest concentrations tested (1 mM DMFU, 4 mM DEME), 24 h

SMILES | nitroglycerin-degrading activity of cell-free extract (Escherichia coli DH5α [1]) | nitroglycerin-degrading activity of cell-free extract [2] | Fold-Induction relative to the control (mixed soil culture) | nitroglycerin-degrading activity of cell-free extract (mixed soil culture) | nitroglycerin-degrading activity of cell-free extract (Pseudomonas sp. BB13) | Fold-Induction relative to the control (Escherichia coli DH5α [1]) | Fold-Induction relative to the control [2] | Fold-Induction relative to the control (Pseudomonas sp. BB13) | course of nitroglycerin-degrading activity with increasing inducer concentration (Escherichia coli DH5α [3]; 24 h) | nitroglycerin-degrading activity (Escherichia coli DH5α [3]; 4 mM TBHQ) | concentration at which nitroglycerin-degrading activity peaked (Escherichia coli DH5α [3]; TBHQ 0.5, 1, 2 and 4 mM) | increase in enzyme activity (Escherichia coli DH5α [3]; dose rate of 4 mM TPBO, 24 h) | increase in enzyme activity relative to the control (Escherichia coli DH5α [3]; 0.01 mM DMFU, 24 h) | increase in enzyme activity relative to the control (Escherichia coli DH5α [3]; [4]) | increase in enzyme activity relative to the control (Escherichia coli DH5α [3]; 0.1 mM DEME, 24 h)
COC(=O)CC(=O)OC | 3.1 U/g | 1.1 U/g | 0.55 fold | 0.33 U/g | 0.15 U/g |  |  |  |  |  |  |  |  |  | 
CCOC(=O)CC(=O)OCC | 4.5 U/g | 0.60 U/g | 0.81 fold | 0.49 U/g | 0.11 U/g |  |  |  |  |  |  |  |  |  | 
CC1=CC(=O)c2ccccc2C1=O | 11 U/g | 1.0 U/g | 2.0 fold | 1.2 U/g | 2.5 U/g | 3.5 fold | 1.7 fold | 25 fold |  |  |  |  |  |  | 
COC(=O)/C=C\C(=O)OC |  |  | 1.4 fold | 0.82 U/g |  |  |  |  | increase in nitroglycerin-degrading activity with increasing concentrations |  |  |  |  |  | 
CC(C)(C)c1cc(O)ccc1O |  |  | 0.8 fold | 0.49 U/g |  |  |  |  | rise and fall in activity as concentrations increased | undetectable levels | 2 mM |  |  |  | 
CC(=O)/C=C/c1ccccc1 |  |  | 3.0 fold | 1.8 U/g |  |  |  |  | increase in nitroglycerin-degrading activity with increasing concentrations |  |  | 97 fold |  |  | 
O=c1oc2ccccc2cc1O |  |  | 0.44 fold | 0.27 U/g |  |  |  |  | rise and fall in activity as concentrations increased |  |  |  |  |  | 
CCN1C(=O)C=CC1=O | 3.7 U/g | 0.72 U/g | 2.0 fold | 1.2 U/g | 0.27 U/g | 1.1 fold | 1.2 fold | 2.7 fold |  |  |  |  |  |  | 
O=[N+]([O-])OCC(CO[N+](=O)[O-])O[N+](=O)[O-] |  |  |  |  | <0.10 U/g | did not illicit any significant response | did not illicit any significant response | 0.68 fold |  |  |  |  |  |  | 
COC(=O)/C=C/C(=O)OC | 38 U/g | 2.4 U/g | 2.4 fold | 1.5 U/g | 1.0 U/g | 12 fold | 4.0 fold | 10 fold | increase in nitroglycerin-degrading activity with increasing concentrations |  |  |  | 2.2 fold | 13 fold | 
CCOC(=O)/C=C\C(=O)OCC | 72 U/g | 5.9 U/g | 2.1 fold | 1.3 U/g | 1.3 U/g | 22 fold | 9.9 fold | 13 fold | increase in nitroglycerin-degrading activity with increasing concentrations |  |  |  |  | 11 fold | 2.8 fold

— US9814918B2, “Microbial deactivation of explosive compositions” (dated 2017)
